A549 viability: A549 cytotoxicity, counter-screen for Nrf2 inhibitors. Potency, µM (titrated, usually from 46 µM), usual class: inhibitors. actives 0.16% (n = 390,000). A549 ARE-Fluc cells, CellTiter-Fluor viability, 18-24 h. AID 504648
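A549 ARE_Fluc cells in 5% FBS OPTI-MEM were exposed to compounds in concentration-response for 18-24 h at 37 deg C. Viability was read by CellTiter-Fluor fluorescence (Ex 405/Em 525) after 30 min, before the luciferase read.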
Nrf2 inh: blocks Nrf2 signaling | A549 ARE-Fluc reporter, luciferase luminescence, 18-24 h | Potency, µM (highest dose often 46 µM), hits mostly inhibitors | actives 2.1% (n = 360,000); note: nearly all actives have a fitted effect of over 60% in size
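Reporter: ARE-Fluc in A549. Exposure: 18-24 h, 37 °C, 5% CO2, 5% FBS OPTI-MEM. Readouts: fluorescent cytotoxicity (CellTiter-Fluor), then luminescent Nrf2 signal after BugLite.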
Nrf2 ARE act: activators of Nrf2 (ARE) signaling. AREc32 ARE-luciferase reporter (MCF7-derived line), luminescence, 24 h. Potency, µM (titrated, usually from 46.1 µM), most hits filed as activators. actives 0.31% (n = 410,000); note: nearly all actives have a fitted effect of over 65% in size
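Each well held 1000 AREc32 cells, which were incubated with compound for 24 hr at 37 deg C after overnight attachment, and ARE reporter activity was quantified by firefly luciferase luminescence.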
Rango dissoc inh: inhibitors of RanGTP-induced Rango-importin beta complex dissociation; O95149+P62826; Biochemical FRET Rango-importin beta, RanGTP-induced dissociation; Potency, µM (highest dose often 46.1 µM); actives 0.071% (n = 340,000); calls by dose curve; note: nearly all actives have a fitted effect of over 45% in size
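Compounds preincubate 5 min with complex of recombinant Rango and importin beta in PBS with 1 mM DTT. Ran (0.6 uM) loaded with 2 mM GTP plus 0.2 uM RCC1 starts dissociation; FRET is recorded 45 min later.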
Rango-impB inh: Rango-importin beta binding inhibition; Q14974; Rango CFP/YFP FRET sensor + importin beta, 45 min; Potency, µM (doses to about 92.2 µM); actives 0.031% (n = 340,000); AID 540263; calls by dose curve; note: nearly all actives have a fitted effect of over 15% in size
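FRET biosensor Rango (snurportin 1 IBB between N-terminal EYFP and C-terminal Cerulean), 50 nM in PBS/1 mM DTT/0.02% Tween-20/0.1% BSA, preincubated 5 min RT with compound; 0.125 microM importin beta added, 45 min RT, CFP/YFP FRET ratio read.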
Numbers stand for hits; 0 = inactive; ? = inconclusive; - = no result given; [ ] = another dose, or the depositor's remark. Sampled rows, rich in hits. Any-hit rate of the full collection: about 2.3%. Unless noted, calls come from the whole dose curve; as a rule, active = well fitted curve in the direction sought with a large enough effect; inconclusive = small, poorly fitted or top-dose-only effect, or another doubt; inactive = no such curve, though single readings can be large; an effect the other way counts as inactive or inconclusive.

SMILES	A549 viability	Nrf2 inh	Nrf2 ARE act	Rango dissoc inh	Rango-impB inh
Clc1cccc(Cl)c1C[n+]1ccc2ccccc2c1	0	6.5µM	0	0	0
CCOC(=O)CN1C(=O)S/C(=C/C=C/c2ccc(N(C)C)cc2)C1=O	?	?	0	0	5.8µM
COc1ccc(Cl)cc1Nc1sc(C(=O)c2ccccc2)c(N)c1C(=O)Nc1ccccc1	0	-	0	-	-
O=C(CN(Cc1ccc(Cl)cc1)C(=O)c1csnn1)NCc1ccccc1	0	0	0	0	0
C/C(=N/N=C/c1ccccc1O)c1ccccc1O	0	?	0	?	37µM
Cc1cccc(NC(=O)CN2CCc3cc4c(cc3C2)OCCCO4)c1	0	?	0	0	0
Cc1cc(C)cc(NC(=O)CN2CCc3cc4c(cc3C2C)OCCCO4)c1 (centres undefined)	0	26µM	0	0	0
Cc1cccc(NC(=O)CN2CCc3cc4c(cc3C2C)OCCCO4)c1 (centres undefined)	0	23µM	0	0	0
CNC1=C(N(C(C)=O)c2ccc(Br)cc2)C(=O)c2ccccc2C1=O	?	16µM	0	0	0
CCC(=O)N(C1=C(NC)C(=O)c2ccccc2C1=O)C(C)C	?	16µM	0	0	0
CC(=O)NC1=C(Nc2ccc(N(C)C)cc2)C(=O)c2ccccc2C1=O	?	?	0	0	0
Cc1cc(SCC(=O)Nc2nsc(-c3ccc(C(C)(C)C)cc3)n2)nc2ccccc12	?	?	0	-	-
O=C(Nc1ccc2c(c1)OCO2)N1CCN(Cc2ccco2)CC1	0	16µM	0	0	0
Cc1ccc(NC(=O)N2CCN(Cc3ccc4c(c3)OCO4)CC2)cc1	?	?	0	0	0
O=S(=O)(c1ccccc1)N1CCN(CC(O)COc2ccc3c(c2)CCC3)CC1 (centres undefined)	0	16µM	0	0	0
CCN1CCN(CC(O)COc2ccc3c(c2)CCC3)CC1 (centres undefined)	0	0	0	0	0
Cc1ccc(OCc2cc(C(=O)NC3CCc4ccccc43)no2)cn1 (centres undefined)	0	13µM	0	0	0
O=[S+]([O-])(NC[C@H]1CCC[C@H](CN[S+](=O)([O-])c2c(F)cccc2F)C1)c1ccc2c(c1)OCCO2	0	0	-	-	-
Cc1cc(C(=O)CN2C(=O)C(=O)N(C3CCCC3)C2=O)c(C)n1CCc1ccccc1	0	18µM	0	0	0
O=C(Nc1ccn(Cc2c(F)c(F)c(F)c(F)c2F)n1)c1cccc(Cn2cc([N+](=O)[O-])cn2)c1	0	18µM	0	0	0
Cc1ccnc(S(=O)(=O)Cc2ccc([N+](=O)[O-])cc2)n1	0	?	13µM	0	0
Cc1ccc(Cl)cc1NC(=O)C(C)n1nc(-c2ccccc2)ccc1=O (centres undefined)	0	0	0	-	-
Cc1ccnc(SCC(=O)c2ccc(Br)cc2)c1C#N	0	?	2.2µM	?	?
Cc1ccc(C(=O)CSc2nsc(C)c2C#N)cc1	0	?	0	0	0
Cc1cc(C)c(C#N)c(OCC(=O)c2ccc(Br)cc2)n1	0	0	6.3µM	?	?
SMILES	A549 viability	Nrf2 inh	Nrf2 ARE act	Rango dissoc inh	Rango-impB inh
CCCCNC(=S)Nc1ccc([N+](=O)[O-])cc1	?	18µM	0	0	0
CC(C)CCNC(=S)Nc1ccc([N+](=O)[O-])cc1	?	?	0	0	0
CC(C)OC(=O)c1cc(NC(=S)Nc2ccc([N+](=O)[O-])cc2)cc(C(=O)OC(C)C)c1	?	16µM	0	0	0
O=C1COc2ccc(C(=O)COC(=O)/C=C/c3ccco3)cc2N1	0	0	2.2µM	0	0
CC(C)CC(NC(=O)c1ccc(Cl)cc1)C(=O)OCC(=O)c1ccc2c(c1)NC(=O)CO2 (centres undefined)	21µM	16µM	0	0	0
CS(=O)(=O)Nc1ccccc1C(=O)Nc1cc(Cl)cc(Cl)c1	0	13µM	0	0	0
CS(=O)(=O)Nc1ccccc1C(=O)Nc1cccc(Cl)c1	0	?	0	0	0
CC(=O)Sc1nc(-c2ccccc2)[nH]c1S(=O)(=O)c1ccc(C)cc1	0	0	0	0	0
CSc1nc(-c2ccc(C)cc2)[nH]c1S(=O)(=O)c1ccccc1	0	18µM	0	0	0
Cc1noc(C)c1C(=O)N1CCN(c2ccc(OCc3ccccc3)cc2)CC1	0	21µM	0	0	0
Oc1ccc2ccccc2c1/C=N/Nc1ccccc1	0	0	0	0	?
Cc1cc(N/N=C/c2c(O)ccc3ccccc23)nc(-c2ccccc2O)n1	?	?	7.1µM	0	0
NC(=S)n1[nH]c(-c2ccc([N+](=O)[O-])cc2)c(N=Nc2ccc(Cl)cc2)c1=O	?	5.2µM	0[9.22 µM]	0	0
Cc1ccc([N+](=O)[O-])cc1N=Nc1c(-c2ccc([N+](=O)[O-])cc2)[nH]n(C(N)=S)c1=O	?	?	0	0	0
COC(=O)c1cc2sc(C)cc2n1Cc1cccc(OC)c1	0	0	0	-	-
COc1cccc2sc3cc(NCc4ccc5c(c4)OCO5)ccc3c(=O)c12	0	0	0	21µM	?
Cc1ccc(C(=O)NC(=C(Cl)Cl)S(=O)(=O)c2ccc(Cl)cc2)cc1	?	?	?	0	0
Cc1ccc(S(=O)(=O)C(NC(=O)c2ccccc2)=C(Cl)Cl)cc1	?	0	?	0	0
Cc1ccc(C(=O)NC(=C(Cl)Cl)S(=O)(=O)c2ccc(C)cc2)cc1	0	0	11µM	0	0
Cc1ccc(S(=O)(=O)/C(=C/Cl)NC(=O)c2ccccc2)cc1	0	18µM	?	0	0
CCOC(=O)CSc1nc2cc3c(cc2c(=O)n1CCCC(=O)NCCc1ccc(OC)c(OC)c1)OCO3	0	-	0	-	-
Cc1cc(Nc2cccc(C(F)(F)F)c2)nc2ccc(NC(=O)c3cccnc3)cc12	?	21µM	0	-	-
Cc1cc(Nc2cccc(C(F)(F)F)c2)nc2ccc(NC(=O)c3cccc(Cl)c3)cc12	18µM	26µM	0	-	-
CCOc1ccc(C(=O)Nc2ccc3nc(Nc4cccc(C(F)(F)F)c4)cc(C)c3c2)cc1OCC	0	0	0	-	-
Cc1cc(Nc2cccc(Cl)c2)nc2ccc(NC(=O)Cc3cccc(C(F)(F)F)c3)cc12	?	?	0	-	-
SMILES	A549 viability	Nrf2 inh	Nrf2 ARE act	Rango dissoc inh	Rango-impB inh
COc1ccccc1CCNC(=O)C(=O)NCC(c1ccco1)S(=O)(=O)c1ccc(F)cc1 (centres undefined)	0	-	0	-	-
CCCNC(=O)Cn1cnc([N+](=O)[O-])n1	0	0	0	0	0
N/C(=N\OC(=O)/C=C/c1ccccc1Cl)c1cccnc1	0	?	16µM	0	0
N/C(=N\OC(=O)c1cccc2ccccc12)c1cccnc1	0	?	2µM	0	0
N/C(=N\OC(=O)/C=C/c1ccccc1)c1cccnc1	0	0	?	0	0
Nc1ccc2c(c1)OC1(CCCC1)O2	0	0	0	?	?
